Laboratory results reported in PubChem BioAssay AID624268 (The Scripps Research Institute Molecular Screening Center, 2012).
The list shows a part of the results, in another mix than the full data. Activity calls are given as the source filed them.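 Rule for the calls: active = inhibition above a per-plate cutoff of the control wells' mean inhibition plus 3 SD (cut at about 5.5% in these data); inactive = the rest.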

System: methionyl-tRNA synthetase (Trypanosoma brucei brucei)
Test: T. brucei MetRS inhibitors, primary screen, biochemical, luminescence (AID 624268);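 note: 0% = DMSO wells median and 100% = median of wells with control inhibitor compound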
Details: purified T. brucei MetRS, ATP depletion, Kinase-Glo luminescence; at 11.9 µM; hits give high values
Method in brief: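 Test system: purified T. brucei MetRS enzyme. Also added: ATP, methionine and E. coli bulk tRNA substrates. Compound: 11.9 µM single point. Schedule: 15 min enzyme-compound preincubation, 2 h reaction, 10 min detection, 25 °C. Signal: luciferase luminescence of residual ATP, Kinase-Glo. Evaluation: percent inhibition versus plate control medians. Controls: DMSO wells, low control.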

Structure (SMILES) | inhibition
CCC(=O)N(c1ccccc1)C1(COC)CCN(CCn2nnn(CC)c2=O)CC1 | inactive: -0.01%
CCC(=O)N(c1ccccc1)C1(COC)CCN(CCc2cccs2)CC1 | inactive: -1.73%
